Reference: patent US20170296682A1, “DERIVATIVES OF DIBENZOTHIOPHENE IMAGING OF alpha-7 NICOTINIC ACETYLCHOLINE RECEPTORS” (THE JOHNS HOPKINS UNIVERSITY, priority 2015, published 2017)

Amino acid sequences for entries named in this document (tags omitted). Residues count along the entry.
UniProt P36544, 23-502 limits assumed: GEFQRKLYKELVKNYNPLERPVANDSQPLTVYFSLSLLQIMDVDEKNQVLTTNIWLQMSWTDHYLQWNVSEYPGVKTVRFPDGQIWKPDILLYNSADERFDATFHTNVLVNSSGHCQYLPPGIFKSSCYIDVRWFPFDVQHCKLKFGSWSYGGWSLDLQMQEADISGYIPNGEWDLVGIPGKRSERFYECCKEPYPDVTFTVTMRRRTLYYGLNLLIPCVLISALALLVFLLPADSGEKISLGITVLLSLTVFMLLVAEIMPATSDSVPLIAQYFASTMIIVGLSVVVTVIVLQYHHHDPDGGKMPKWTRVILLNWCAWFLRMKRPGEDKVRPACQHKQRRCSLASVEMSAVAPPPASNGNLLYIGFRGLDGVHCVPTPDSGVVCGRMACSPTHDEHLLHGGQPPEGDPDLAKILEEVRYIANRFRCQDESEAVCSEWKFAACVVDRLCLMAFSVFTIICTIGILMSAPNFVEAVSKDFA
UniProt P49582, 23-502 limits assumed: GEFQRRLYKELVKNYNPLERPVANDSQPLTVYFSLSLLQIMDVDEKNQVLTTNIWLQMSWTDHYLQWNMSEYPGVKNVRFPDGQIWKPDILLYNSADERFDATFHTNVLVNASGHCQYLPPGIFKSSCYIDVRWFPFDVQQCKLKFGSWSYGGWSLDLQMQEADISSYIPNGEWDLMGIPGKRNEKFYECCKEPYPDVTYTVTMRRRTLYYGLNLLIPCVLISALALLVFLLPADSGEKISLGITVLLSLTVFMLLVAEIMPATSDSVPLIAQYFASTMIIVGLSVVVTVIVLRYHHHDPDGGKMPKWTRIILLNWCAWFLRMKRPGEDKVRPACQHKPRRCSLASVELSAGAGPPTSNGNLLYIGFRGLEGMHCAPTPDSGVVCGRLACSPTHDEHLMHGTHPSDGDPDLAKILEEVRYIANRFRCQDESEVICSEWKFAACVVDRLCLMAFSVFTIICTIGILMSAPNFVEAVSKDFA

Key:
α7-nAChR [1] = biological target: α7-nAChR (Homo sapiens, UniProt P36544); conditions: read-out: α7-nAChR, Ki; previously published values, varied assay conditions; cited from earlier work
α7-nAChR [2] = conditions: taken from references or estimated as VT/VND -1 or (cortex uptake/cerebellum uptake) -1; cited from earlier work
α7-nAChR [3] = biological target: T1, α7-nAChR (Mus musculus, UniProt P49582); conditions: taken from references or estimated as VT/VND -1 or (cortex uptake/cerebellum uptake) -1; cited from earlier work
α7-nAChR [4] = biological target: T1, α7-nAChR; experiment: Biodistribution of [125I]14 in mice, baseline and SSR180711 blocking; conditions: 180 min post injection

Row | Compound | Ki (α7-nAChR [1]) [nM] | BPND in cortex, Monkey or Pig (α7-nAChR [2]) | BPND in cortex, Mice (α7-nAChR [3]) | accumulation of 125I radioactivity, cerebellum (α7-nAChR [4]) [%1.D./g] | accumulation of 125I radioactivity, frontal cortex (α7-nAChR [4]) [%1.D./g] | accumulation of 125I radioactivity, hippocampus (α7-nAChR [4]) [%1.D./g] | accumulation of 125I radioactivity, superior colliculus (α7-nAChR [4]; tail vein) [% injected dose/g tissue]
1 | [11CH3]Nc1cccc(C(=O)OC2CN3CCC2CC3)c1 (stereo not shown) | 40.6 | 0.4 | 0.4 |  |  |  | 
2 | [^125I] 3-(1 A-Diazabicyclo[3.2.2]nonan-4-yl)-6-iododibenzo[b,d]thiophene 5,5-Dioxide |  |  |  | 0.76 | 2.74 | 2.65 | 3.2
